According to PubChem BioAssay AID795 (NMMLSC, 2007):
This is a selection; strong and weak results do not stand in their true shares. Some tests of the compounds listed are not included; inactive here does not mean inactive elsewhere. The source made the active and inactive calls.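 How the source made its calls: active means side scatter shift above 30%; inactive means the rest.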

Experiment: inducers of granularity increase in LNCaP cells – cell-based, flow cytometry side scatter, primary screen (AID 795);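 further: androgen-responsive LNCaP prostate cancer cells in charcoal-stripped serum medium; percent of cells past a gate set so DMSO wells show 10% shift; higher shift means more granular cells and more differentiation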
Details: LNCaP differentiation, 4 d, at 10 µM, hits give high values

Structure (SMILES)	side scatter shift
O=C(OC1CN2CCC1CC2)C(CO)(c1ccccc1)c1ccccc1 (stereo unspecified)	inactive: 8%
